# Several values for one entry are separate records, joined by “and”; a condition that tells them apart may be missing. Equal entries are not always repeated. Among all 10,000 compounds or so, about 15 (0.1%) were called active.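 Rule for the calls: active = highest signal at least 8 times the median of untreated cell-only control wells at some dose; inactive = the rest.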 Not all results are given here.
# Protein sequences, listed by entry. Tags and fused reporters are not part of them. Chains listed by the source or under a name are the forms on record and can include a tag or linker.
# UniProt P13569, with tags, fused parts or gaps F508del: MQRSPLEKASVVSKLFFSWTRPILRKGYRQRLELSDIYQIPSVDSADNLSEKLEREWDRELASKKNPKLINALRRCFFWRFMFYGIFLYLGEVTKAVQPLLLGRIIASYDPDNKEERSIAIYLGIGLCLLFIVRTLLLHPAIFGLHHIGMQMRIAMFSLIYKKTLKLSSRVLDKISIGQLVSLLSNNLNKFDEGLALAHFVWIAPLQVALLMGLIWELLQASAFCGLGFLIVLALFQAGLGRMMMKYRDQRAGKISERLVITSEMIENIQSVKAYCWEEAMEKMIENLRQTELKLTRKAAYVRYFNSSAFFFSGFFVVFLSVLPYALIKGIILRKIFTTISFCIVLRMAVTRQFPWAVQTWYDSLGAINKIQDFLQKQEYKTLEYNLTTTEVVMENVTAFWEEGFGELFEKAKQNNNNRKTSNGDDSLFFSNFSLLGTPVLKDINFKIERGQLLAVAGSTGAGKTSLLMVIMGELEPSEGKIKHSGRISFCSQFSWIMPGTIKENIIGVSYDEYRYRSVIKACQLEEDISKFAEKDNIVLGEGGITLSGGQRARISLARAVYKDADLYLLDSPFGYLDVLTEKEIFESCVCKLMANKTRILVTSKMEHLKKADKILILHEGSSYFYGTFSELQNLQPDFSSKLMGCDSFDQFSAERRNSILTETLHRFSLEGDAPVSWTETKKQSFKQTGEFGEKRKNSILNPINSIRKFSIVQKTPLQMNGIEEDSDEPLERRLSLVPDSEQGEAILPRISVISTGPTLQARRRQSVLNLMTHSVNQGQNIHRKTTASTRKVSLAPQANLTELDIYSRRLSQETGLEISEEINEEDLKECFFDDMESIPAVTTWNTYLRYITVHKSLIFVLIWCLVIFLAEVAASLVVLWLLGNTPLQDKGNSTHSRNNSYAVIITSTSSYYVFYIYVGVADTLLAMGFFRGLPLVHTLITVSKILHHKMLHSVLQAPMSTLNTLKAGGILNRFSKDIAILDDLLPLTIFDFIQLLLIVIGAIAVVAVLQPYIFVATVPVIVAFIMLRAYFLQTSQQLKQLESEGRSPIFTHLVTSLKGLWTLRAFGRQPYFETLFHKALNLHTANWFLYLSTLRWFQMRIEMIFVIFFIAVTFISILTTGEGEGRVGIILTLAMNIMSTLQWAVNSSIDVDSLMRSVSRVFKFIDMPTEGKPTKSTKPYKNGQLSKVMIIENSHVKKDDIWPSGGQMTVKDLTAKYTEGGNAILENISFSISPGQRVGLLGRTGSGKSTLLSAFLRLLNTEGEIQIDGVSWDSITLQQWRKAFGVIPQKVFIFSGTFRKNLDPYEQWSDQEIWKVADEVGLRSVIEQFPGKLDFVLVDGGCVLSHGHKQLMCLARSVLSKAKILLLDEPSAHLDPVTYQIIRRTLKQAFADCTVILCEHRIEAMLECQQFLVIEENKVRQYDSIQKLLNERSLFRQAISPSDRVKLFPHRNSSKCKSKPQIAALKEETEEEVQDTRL
# Key:
# [1] = compounds raising F508del-CFTR protein level – cell-based, HeLa F508del-CFTR, immunofluorescence, viability, primary screen (AID 1224863); conditions: immunofluorescence total CFTR, 24 h, stronger effect = higher value; min viability: measured here: HeLa viability, alamarBlue, dose 20, library dosed in µg/mL unless noted; viability: measured here: primary viability 10 ug/mL, library dosed in µg/mL unless noted;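 for fold increase: total CFTR protein by anti-CFTR immunofluorescence in fixed cells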;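 for max fold increase: total CFTR protein by anti-CFTR immunofluorescence in fixed cells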
# [2] = molecular target: Cystic fibrosis transmembrane conductance regulator (Homo sapiens) (UniProt P13569); experiment: as above; conditions: immunofluorescence total CFTR, 24 h; fold increase: measured here: primary screen 10 ug/mL, library dosed in µg/mL, stronger effect = higher value unless noted; max fold increase: dose 10, library dosed in µg/mL, stronger effect = higher value unless noted; outcome: library dosed in µg/mL unless noted
Structure (SMILES),viability [1],fold increase [2],outcome [2],min viability [1],max fold increase [2]
Clc1ccc(-n2nnnc2SCCCc2nc3ccccc3o2)cc1,84%,0.85,inactive,–,–
Cc1nn(-c2ccccc2)c2c1CC(C#N)(c1nc3ccccc3s1)C1CCCN21 (stereo not given),89%,1.29,inactive,–,–
O=S(=O)(NCCc1ccc2c(c1)OCCO2)c1ccc2c(c1)CCC2,95%,0.9,inactive,–,–
C=CCn1c(SC(C)c2nnnn2-c2ccccc2)nnc1-c1ccoc1C (stereo not given),93%,1.01,inactive,–,–
Cc1nc(N2CCC(NS(C)(=O)=O)CC2)c2c3c(sc2n1)CCC3,85%,0.99,inactive,–,–
CS(=O)(=O)CCC(=O)Nc1nc2c(s1)CCC2,92%,1.13,inactive,–,–
O=S(=O)(c1ccc(S(=O)(=O)N(Cc2ccc3c(c2)OCO3)C2CCCC2)cc1)N1CCCC1,98%,0.96,inactive,–,–
CNC(=O)CN(C)c1ncnc2sc3c(c12)CCCC3,94%,1.01,inactive,–,–
Nc1nccnc1C(=O)N1CCN(c2nccs2)CC1,79%,1.03,inactive,–,–
CC[C@H](C)[C@H]1O[C@]2(CC[C@@H]1C)C[C@@H]1C[C@@H](C/C=C(\C)[C@@H](O[C@H]3C[C@H](OC)[C@@H](O[C@H]4C[C@H](OC)[C@@H](O)[C@H](C)O4)[C@H](C)O3)[C@@H](C)/C=C/C=C3\CO[C@@H]4[C@H](O)C(C)=C[C@@H](C(=O)O1)[C@]34O)O2,"25% [measured here: primary viability 25 uM, at 25 µM, library dosed in µM] and 48% [measured here: primary viability 25 uM, at 25 µM, library dosed in µM]","0.61 [measured here: primary screen single dose 25 uM, at 25 µM, library dosed in µM, stronger effect = higher value] and 0.72 [measured here: primary screen single dose 25 uM, at 25 µM, library dosed in µM, stronger effect = higher value]",inactive [library dosed in µM],–,–
COCCN1C(=O)C(=O)/C(=C(/O)c2ccccc2)C1c1cccc(Oc2ccccc2)c1 (stereo not given),106%,0.99,inactive,–,–
Cc1cc(C(=O)Cn2nnn(-c3cccs3)c2=O)c(C)n1CCc1cccs1,91%,0.85,inactive,–,–
O=C(CSc1nc(O)cc(=O)n1C1CCCC1)NC12CC3CC(CC(C3)C1)C2,85%,0.96,inactive,–,–
CCSc1nnc(SC(C)c2ccc(F)cc2)s1 (stereo not given),77%,0.8,inactive,–,–
O=C(CC1CC2CCC1C2)N1CCN(c2cnccn2)CC1 (stereo not given),83%,1,inactive,–,–
O=C(CC1CC2CCC1C2)Nc1cc(NC(=O)c2ccc3c(c2)OCO3)ccc1F (stereo not given),78%,0.79,inactive,–,–
CCc1nc2ccccc2n1CCOc1ccc(Br)cc1,81%,0.89,inactive,–,–
COc1cc(F)c(S(=O)(=O)Nc2ccc3c(c2)OC2(CCCCC2)O3)cc1OC,85%,0.93,inactive,–,–
CCN(CC)S(=O)(=O)c1cc2c(cc1Br)NC(=O)CO2,92%,1.02,inactive,–,–
CSCCSc1nnc(-c2ccccc2)n1-c1ccc(Cl)cc1,81%,0.92,inactive,–,–
C=CCn1c(C)cc(C(=O)COc2ccc3oc4c(c3c2)CCCC4)c1C,84%,0.97,inactive,–,–
N#CCSc1nc2sc3c(c2c(=O)n1C1CCCC1)CCCC3,80%,0.98,inactive,–,–

Structure (SMILES),viability [1],fold increase [2],outcome [2],min viability [1],max fold increase [2]
CCOC(=O)C1SC(SCc2cc(C(=O)OC)c(C)o2)=NC1=O (stereo not given),99%,1.01,inactive,–,–
CN1C(=O)C(=O)N(CCOc2ccc(Cl)cc2Br)C1=O,90%,0.98,inactive,–,–
Clc1ccc(-c2csc(NC3CC3)n2)cc1Cl,99%,0.91,inactive,–,–
CC(c1nc(C(C)(C)C)no1)N1CCN(c2ccccc2F)CC1 (stereo not given),87%,0.89,inactive,–,–
CC(=O)c1c(C)[nH]c(C(=O)C(C)N2CCN(C(=O)C3CC3)CC2)c1C (stereo not given),78%,0.82,inactive,–,–
CS(=O)(=O)N1CCN(c2ccc(Br)cc2[N+](=O)[O-])CC1,103%,0.92,inactive,–,–
Cc1cc(C(=O)OC(C)C(N)=O)c(C)n1CC(F)(F)F (stereo not given),88%,1.05,inactive,–,–
Cc1cc(CN2CCN(CCS(=O)c3ccccc3)CC2)on1 (stereo not given),90%,1.09,inactive,–,–
C=CCn1c(-c2cccnc2)nn(CN2CCc3ccccc3C2)c1=S,111%,1.12,inactive,–,–
CN1N=C(C(=O)Nc2ccc3c(c2)OC2(CCCC2)O3)CCC1=O,92%,0.97,inactive,–,–
Cc1cc(C)n2nc(SCC(=O)c3ccc(Br)cc3)nc2n1,76%,0.93,inactive,–,–
CC1CCc2c(sc3nc(-c4cccnc4)nc(N4CCNC(=O)CC4)c23)C1 (stereo not given),84%,0.94,inactive,–,–
COc1ccc(C23CC4CC(CC(C(=O)OC5CCOC5=O)(C4)C2)C3)cc1 (stereo not given),108%,1.12,inactive,–,–
Cc1ccc(-c2nc(-c3ccc(C(C)(C)C)cc3)c(C)s2)cc1,96%,1.12,inactive,–,–
N#CC1(c2nc3ccccc3s2)Cc2cc([N+](=O)[O-])ccc2N2CCCCC21 (stereo not given),88%,1.17,inactive,–,–
CN1CCN(S(=O)(=O)c2ccc(Sc3ccc(Br)cc3)nc2)CC1,79%,0.92,inactive,–,–
CCCNC(=O)C(C)NC(=O)Cc1c(C)nc2nc(N)nn2c1C (stereo not given),99%,1.14,inactive,–,–
Cc1nn2c(nc(NC3CCCN(C)C3)c3ccccc32)c1Cl (stereo not given),72%,2.03,–,"70.3% [measured here: HeLa viability, alamarBlue, dose 10, library dosed in µg/mL]","1.32 [dose 0.039, library dosed in µg/mL, stronger effect = higher value] (inactive)"
O=c1oc2ccccc2n1CN1CCCC(O)C1 (stereo not given),85%,0.95,inactive,–,–
O=[N+]([O-])c1cc2c(c(CSc3nnnn3-c3ccc(Cl)cc3)c1)OCOC2,91%,1.01,inactive,–,–
CN(Cc1nc2ccsc2c(=O)[nH]1)C(=O)CCc1nnc(-c2ccsc2)o1,87%,1.17,inactive,–,–

# Reference: PubChem BioAssay AID1224863 (Southern Research Institute, 2016)
